System: neural stem cells
Assay: In vitro migration assay using ERK pathway and CDK5 pathway inhibitors
Type: cell-based, human
Conditions: 20 nM inhibitor, 12 hours
Excerpt: It has been reported that, in the development of the central nervous system, neural stem cells migrate from the subventricular zone to cortex through radial glial cells using the ERK (extracellular signal regulated kinase) and CDK5 signaling pathways, and in the neuronal migration, DCX participated in nucleus translocation, neucleokinesis (Niethammer et al., 2000).
Cultured neural stem cells were detached with 0.05% trypsin, washed with DMEM medium and re-suspended in DMEM medium, after which 5×10^4 cells were inoculated into an upper chamber (Costar Transwell) in 200 μl of 10% FBS-containing DMEM medium.
After 12 hours, in order to determine the number of cells that migrated from the upper chamber through a 8-μm porous polycarbonate membrane to the lower portion of the membrane in response to the stimulation of the lower chamber, the migrated neural stem cells were stained with hematoxylin & eosin and counted.

SMILES: CC[C@H](CO)Nc1nc(NCc2ccccc2)c2ncn(C(C)C)c2n1 [roscovitine]
- migration of neural stem cells in control group not treated with periostin: inhibited

Reference: patent US9028810B2, “Composition for inducing migration of neural stem cells containing periostin as effective ingredient” (Ajou University Industry—Academic Cooperations Foundatin, priority 2010, dated 2015)
